Measurements as given in PubChem BioAssay AID651699 (Sanford-Burnham Center for Chemical Genomics, 2012).
The list shows a part of the results, in another mix than the full data. Activity calls are given as the source filed them. No stated cut-off is given here; in the data, active means inhibition above about 36%; inactive means the rest.

The chains behind the UniProt entries cited, without tags or fusion partners. Where a name states a change or a piece, a line headed by the entry shows the natural chain unless it says otherwise.
UniProt P61081: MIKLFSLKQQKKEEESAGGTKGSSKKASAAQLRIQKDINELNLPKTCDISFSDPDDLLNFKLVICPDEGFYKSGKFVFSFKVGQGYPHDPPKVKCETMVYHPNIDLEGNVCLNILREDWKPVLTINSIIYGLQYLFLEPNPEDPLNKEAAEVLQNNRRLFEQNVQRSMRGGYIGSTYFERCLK
UniProt Q13564: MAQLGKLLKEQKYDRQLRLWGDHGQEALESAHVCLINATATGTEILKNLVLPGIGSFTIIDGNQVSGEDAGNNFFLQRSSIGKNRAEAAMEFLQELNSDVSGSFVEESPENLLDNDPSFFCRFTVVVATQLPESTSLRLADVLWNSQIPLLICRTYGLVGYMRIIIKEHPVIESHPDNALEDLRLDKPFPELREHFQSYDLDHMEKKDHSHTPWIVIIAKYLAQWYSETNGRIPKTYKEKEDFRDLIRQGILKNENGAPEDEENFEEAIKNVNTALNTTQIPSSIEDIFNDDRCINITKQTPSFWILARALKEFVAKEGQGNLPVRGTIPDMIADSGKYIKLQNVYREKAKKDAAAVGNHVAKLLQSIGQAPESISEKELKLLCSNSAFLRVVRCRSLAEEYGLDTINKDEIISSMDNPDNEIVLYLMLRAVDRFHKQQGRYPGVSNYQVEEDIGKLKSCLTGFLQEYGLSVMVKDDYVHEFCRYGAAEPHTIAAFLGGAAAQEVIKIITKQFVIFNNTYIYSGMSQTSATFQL

Biological target: NEDD8-conjugating enzyme Ubc12 (Homo sapiens) + NEDD8-activating enzyme E1 regulatory subunit (Homo sapiens) (UniProt P61081+Q13564)
Assay: NEDD8 transfer onto cullin, blockade – biochemical, TR-FRET, uHTS, NAE and Ubc12, primary screen (AID 651699)
Conditions: TR-FRET cullin neddylation, at 25 µM, hits give high values

SMILES	inhibition
CS(=O)(=O)c1ccc(Cl)c(NC(=O)COC(=O)C(O)(c2ccccc2)c2ccccc2)c1	inactive: -1.76%
O=[As](O)(O)c1cccnc1	inactive: 0.6%
COc1cc(C(=O)NCC2(N3CCOCC3)CCCCC2)cc(Cl)c1OC(C)C	inactive: 6.37%
O=C(OC1CN2CCC1CC2)c1ccc(Cl)cc1 (stereo not given)	inactive: -9.66%
Cc1cccc(OCC(=O)OC2CN3CCC2CC3)c1 (stereo not given)	inactive: -1.33%
O=[As](O)(c1cccc(O)c1)c1cccc(O)c1	inactive: 0.07%
CCCOP(=S)(Nc1nc(N)cc(=O)[nH]1)OCCC	inactive: 6.22%
Nc1cccc2c([As](=O)(O)O)cccc12	inactive: -1.08%
Cc1ccc(NCCc2c([N+](=O)[O-])cc([N+](=O)[O-])cc2[N+](=O)[O-])cc1	inactive: -49.7%
CCOP(=O)(Nc1cccc2ccccc12)OCC	inactive: 23.4%
COc1cc(C2NCCC3(OCCO3)C2(C)C)cc(OC)c1OC (stereo not given)	inactive: 2.8%
CS(=O)(=O)c1cc([N+](=O)[O-])c2no[n+]([O-])c2c1	inactive: 0.07%
O=P(Nc1nccs1)(Oc1ccccc1)Oc1ccccc1	inactive: 6.54%
O=P(Nc1nccs1)(c1ccccc1)c1nc2ccccc2s1 (stereo not given)	inactive: -7.32%
CCOP1(=S)c2c(C)nn(CCC#N)c2N=C(c2ccccc2F)N1C (stereo not given)	inactive: 6.75%
O=C(O)COc1ccc([As](=O)(O)O)cc1[N+](=O)[O-]	inactive: 6.3%
Nc1ccccc1[As](=O)(O)c1ccccc1	inactive: 7.39%
NC(=O)Nc1ccc([As](=O)(O)O)cc1	inactive: 6.03%
CN(C(=O)Cc1ccc(Cl)c(Cl)c1)[C@H]1CC[C@@]2(CCCO2)C[C@@H]1N1CCCC1	inactive: -11.4%
O=[N+]([O-])c1ccc2c(c1)nnn2O	inactive: -21.5%
CN(C)C(=O)c1cc([N+](=O)[O-])cc2c1-c1c(cc([N+](=O)[O-])cc1[N+](=O)[O-])C2=O	inactive: -59%
CCOP1(=S)c2c(C)nn(CCC#N)c2N=C(c2ccc(F)cc2)N1C (stereo not given)	inactive: -4.61%
CN(C(=O)Cc1ccccc1)[C@@H]1CC[C@]2(CCCO2)C[C@H]1N1CCCC1	inactive: 1.75%
N#CCCN(C(=O)COC(=O)C(O)(c1ccccc1)c1ccccc1)c1ccc(F)cc1	inactive: 0.02%
Cc1ccc(C(=O)OC2CN3CCC2CC3)cc1 (stereo not given)	inactive: -11.5%

SMILES	inhibition
CC1CCC(C(C)C)C(OP(=O)(Nc2ccccn2)c2ccccc2)C1 (stereo not given)	inactive: 1.46%
Cc1nn(-c2ccccc2)c2c1P(=O)(N1CCOCC1)N(C)C(c1ccccc1)=N2 (stereo not given)	inactive: 2.68%
CCCC1OP(=O)(Nc2ccccc2)OCC1CC (stereo not given)	inactive: 1.08%
O=C(/C=C/c1ccccc1)OC1CN2CCC1CC2 (stereo not given)	inactive: 6.58%
CN(C)C1(CNC(=O)c2ccc(S(C)(=O)=O)cc2)CCCCC1	inactive: 10.3%
O=P1(Nc2ncccn2)COc2ccccc2OC1	inactive: 5.99%
Cc1ccc(S(=O)(=O)N(CCCN)CCCc2c(C)nc(N)[nH]c2=O)cc1	inactive: -62%
O=[As](O)(c1cccs1)c1cccs1	inactive: 1.36%
Cc1ccc(OCC(=O)OC2CN3CCC2CC3)cc1 (stereo not given)	inactive: -1.34%
NS(=O)(=O)c1cccc(NC(=O)COC(=O)C(O)(c2ccccc2)c2ccccc2)c1	inactive: -26.3%
O=P1(Nc2ccc(Br)cn2)COc2ccccc2OC1	inactive: -2.65%
Nc1cccc([As](=O)(O)c2ccccc2)c1	inactive: 7.47%
CCOP(=O)(Nc1ccc(C)cn1)OCC	inactive: 20.2%
CN(CCCl)Cc1cc(Cl)c(NC2=NCCN2)c(Cl)c1	inactive: -16.2%
CCOP(=O)(NC(=NC(C)c1ccccc1)NC(C)c1ccccc1)OCC (stereo not given)	inactive: -0.06%
CCC1=CC2Cc3nc4ccc(Cl)cc4c(N)c3C(C1)C2 (stereo not given)	inactive: 1.2%
O=P1(Nc2ccccn2)COc2ccccc2OC1	inactive: 6.86%
CC(C)(C)C(=O)NC(Sc1ncccn1)C(Cl)(Cl)Cl (stereo not given)	inactive: 11%
Clc1n[nH]nc1-c1nn[nH][15n]1	inactive: -2.91%
O=P1(N(CCCl)CCCl)NCCC(C(F)(F)F)O1 (stereo not given)	inactive: -4.83%
COc1ccccc1CNC(=O)COC(=O)C(O)(c1ccccc1)c1ccccc1	inactive: 16.1%
CC1(CBr)Cn2c(nc3ccccc3c2=O)S1 (stereo not given)	inactive: -5.39%
CN(C(=O)Cc1ccc(Cl)c(Cl)c1)[C@@H]1CCCC[C@H]1N1CCCC1	inactive: -4.36%
CC(C)/C=N\N=C(\N)N[N+](=O)[O-]	inactive: -3.4%
COC(=O)C1(C)COP(=O)(N2CCCC2)OC1 (stereo not given)	inactive: -0.09%

SMILES	inhibition
COP1(=S)c2c(C)nn(CCC#N)c2N=C(c2ccc(F)cc2)N1C (stereo not given)	inactive: 1.53%
O=C(Nc1ccncc1[N+](=O)[O-])c1ccc([N+](=O)[O-])cc1[N+](=O)[O-]	inactive: -42.2%
O=C(COc1ccccc1)OC1CN2CCC1CC2 (stereo not given)	inactive: -4.28%
O=C(O)C(=O)c1ccc(N(CCCl)CCCl)cc1	inactive: -4.07%
CCOC(=O)c1ccc(NC(=O)C(C)(CCl)SC)cc1 (stereo not given)	inactive: -2.23%
CSc1ccc(Nc2c([N+](=O)[O-])cc([N+](=O)[O-])cc2[N+](=O)[O-])cc1	inactive: -40.7%
O=C(OC1CN2CCC1CC2)c1cccc([N+](=O)[O-])c1 (stereo not given)	inactive: -20.9%
CCC(C)N(CC(C)C)C(=S)SC(NC(C)=O)C(Cl)(Cl)Cl (stereo not given)	inactive: -0.42%
CC1CCNP(=O)(N(CCCl)CCCl)O1 (stereo not given)	inactive: -4.53%
O=C(O)C(O)c1ccc(N(CCCl)CCCl)cc1 (stereo not given)	inactive: -7.53%
CCOC(=O)Nc1ccc([As](=O)(O)O)c(O)c1	inactive: -3.26%
Cc1cc(SC(NC(=O)c2ccccc2)C(Cl)(Cl)Cl)nc(C(C)C)n1 (stereo not given)	inactive: 18.8%
CCCCOc1ccc(C(=O)NCC2(N3CCCCC3)CCCCC2)cc1OC	inactive: -1.46%
COP(=O)(OC)N1CC1c1ccccc1 (stereo not given)	inactive: -4.54%
CCOC(=O)Nc1cccc([As](=O)(O)O)c1	inactive: -1.08%
O=[N+]([O-])c1ccc(Nc2ccc(Oc3ccc([N+](=O)[O-])cc3[N+](=O)[O-])cc2)c([N+](=O)[O-])c1	inactive: -20.3%
Cc1cc(SC(NC=O)C(Cl)(Cl)Cl)ncn1 (stereo not given)	inactive: -3.36%
O=P(Nc1ccccn1)(c1cccc2ccccc12)c1cccc2ccccc12	inactive: -35%
O=[N+]([O-])c1ccc(-c2cc([N+](=O)[O-])c(O)c([N+](=O)[O-])c2)cc1	inactive: -38.7%
COc1cc(C(=O)NCC2(N3CCOCC3)CCCCC2)ccc1OCC(C)C	inactive: -1.58%
O=[As](O)(c1ccc(O)cc1)c1ccccc1O	inactive: -3.69%
C[As](=O)(O)c1cccc(C(=O)O)c1	inactive: 1.54%
Cc1ccc2nc3c(c(C)c2c1)CC(C(Cl)Cl)S3 (stereo not given)	inactive: -89.5%
Cc1ccc(OP(=O)(Nc2ccc([N+](=O)[O-])cn2)Oc2ccc(C)cc2)cc1	inactive: 0.63%
[N-]=[N+]=NC1CCCCC1NC(=O)c1cc([N+](=O)[O-])cc([N+](=O)[O-])c1 (stereo not given)	inactive: -30.7%

SMILES	inhibition
COC(=O)C1(C)COP(=O)(N2CCCCCC2)OC1 (stereo not given)	inactive: -2.54%
CC(C)c1ccc(OP(=O)(Nc2ccccn2)Oc2ccccc2F)cc1 (stereo not given)	inactive: 13.8%
ClCCSc1nnc(-c2cccnc2)o1	inactive: -6.92%
O=[N+]([O-])c1cc([N+](=O)[O-])c(-c2ccn[nH]2)s1	inactive: -22.1%
CC(C)NC(=O)NP(=O)(Oc1ccccc1)Oc1ccccc1	inactive: 2.03%
O=C(OC1CN2CCC1CC2)c1cccc2[nH]cnc12 (stereo not given)	inactive: 9.46%
CCN(CC)C(=S)SC(NC=O)C(Cl)(Cl)Cl (stereo not given)	inactive: 8.39%
Cc1cc(=O)[nH]c(N[N+](=O)[O-])n1	inactive: 8.29%
O=C(OC1CN2CCC1CC2)C12CC3CC(CC(C3)C1)C2 (stereo not given)	inactive: 9.12%
Cc1c2c(nc3ccccc13)SC(C(Cl)Cl)C2 (stereo not given)	inactive: -106%
COc1cc(I)ccc1[As](=O)(O)O	inactive: 2.69%
COc1ccc2nc(NP(=O)(c3ccccc3)c3ccccc3)sc2c1	inactive: 3.2%
O=P1(N(CCCl)CCCl)Nc2ccccc2N1	inactive: -1.77%
O=P1(N(CCCl)CCCl)OCCCN1CCCl (stereo not given)	inactive: -2.59%
COc1ccc(N/C(=N/P(=O)(N2CCOCC2)N2CCOCC2)N2CCOCC2)cc1	inactive: 4.88%
O=[N+]([O-])c1cc(Oc2ccc([N+](=O)[O-])cc2C(F)(F)F)cc([N+](=O)[O-])c1	inactive: -30.6%
NC(=O)c1cc([N+](=O)[O-])cc([N+](=O)[O-])c1N	inactive: -38.5%
Cc1ccc(N/C(=N/P(=O)(N2CCOCC2)N2CCOCC2)N2CCOCC2)cc1	inactive: 7.32%
CN(C(=O)Cc1ccc(Cl)c(Cl)c1)[C@H]1CCCC[C@H]1N1CCCC1	inactive: 7.51%
Cc1ccc(OP(=O)(Nc2nccs2)Oc2ccc(C)cc2)cc1	inactive: -2.15%
COc1ccccc1OP(=O)(Nc1ccc(C)cn1)Oc1ccccc1OC	inactive: 3.49%
CN1CCCC(OC(=O)C(c2ccccc2)c2ccccc2)C1 (stereo not given)	inactive: -3.29%
Clc1ccc(Cl)c(NC2=NCC(CBr)S2)c1 (stereo not given)	inactive: -0.63%
Nc1cc(N)c2nonc2c1[N+](=O)[O-]	inactive: -38.6%
CC(C)CC(=O)NC(Sc1ccc(Cl)cc1)C(Cl)(Cl)Cl (stereo not given)	inactive: -0.26%
